This is a selection; strong and weak results do not stand in their true shares. Records with an inconclusive call do not appear. Calls of active or inactive are those of the source. Calls follow the shape of the dose curve; as a rule, active = well fitted inhibition curve with a large enough effect; inconclusive = small, poorly fitted or top-dose-only effect; inactive = flat fitted curve, though single readings scatter.
The compounds below were run against N-terminal Xaa-Pro-Lys N-methyltransferase 1 (Homo sapiens) (UniProt Q9BV86) (assay: Primary qHTS for Inhibitors of N-terminal methyltransferase 1 (NTMT1): MTaseGlo Assay). Conditions: NTMT1 MTase-Glo SAH luminescence, purified enzyme; series mostly up to 114 µM; activity change, negative = inhibition: at the top concentration.
Source text: Assay Submitter (PI): Rong Huang Ph.D.
Purdue University, West Lafayette, IN 47907
The N-terminal methytransferase 1 is the first methyltransferase that methylates protein alpha-N-amines and plays an important role in regulating cell mitosis, chromatin interactions and DNA repair. It is observed to be over-expressed in various cancer patient tissues like malignant melanoma and colorectal cancer tissues. Knockdown of NTMT1 in cancer cells causes cell mitotic defects and enhances sensitivity to DNA damaging chemotherapeutics. […] These critical cellular processes in which NTMT1 is implicated, coupled with emerging links to cellular dysfunction, strengthen the inference that NTMT1 is a compelling novel anticancer target. Progress have been made in understanding the molecular properties of NTMT1 and the biological consequences of protein alpha-N-terminal methylation, but there are no specific small molecule probes available for NTMT1 to fully characterize its MTase activity. To address this unmet need, a panel of assay is created and established to enable quantitative high-throughput screening (qHTS) for novel, potent, and selective small molecule NTMT1 inhibitors. Two orthogonal qHTS that use different reagents (ThioGlo vs. MTaseGlo) are developed for primary robotic screening against the NCATS chemical library of more than 400,000 small molecules. Identified inhibitors are reacquired, validated, and further characterized.
MTaseGlo Assay is a luminescence screen that measure the activity of methyltransferases based on the reaction product S-adenosyl homocysteine (SAH). The substrate SAM is converted to SAH upon enzyme activation. MTase-Glo reagent and detection solution convert SAH to ATP and measure the light from the luciferase reaction.
Materials: NTMT1 enzyme, substrate SPKRIA, control peptide RCC1-6 is provided by the Huang laboratory.
SEQUENCE No. (e.g., 1, 2, 3, etc.); […] (e.g., Cells, Incubation, Reagent, etc.); VALUE; DESCRIPTION
1; Enzyme; 3 uL; Dispense enzyme mixture (final concentrations of 125 nM NTMT1 and 100 uM SAM) into Greiner 1536-well white / solid bottom assay plate (Greiner Bio One, Monroe, NC).
2; Compounds; 23 nL; Compounds and controls were transferred via a Kalypsys Pin Tool (Wako USA) equipped with a 1536-slotted pin array (Wako Automation, Richmond, VA)
3; Incubation; 15 min; Incubate at room temperature
4; Substrate; 1 uL; Dispense 1 uL of substrate at final concentration of 1 uM. Buffer solution was dispensed in control wells. The assay plate was covered with metal lids.
5; Incubation; 30 min; Incubate at room temperature, protected from lights.
6; Reagent; 1 uL; Dispensed 5x MTase-Glo detection reagent (R) into the assay plate. The plate was covered with metal lids.
7; Incubation; 30 min; Incubate the assay plates at room temperature in the dark to allow for SAH to be converted to ADP.
8; Reagent; 5 uL; Dispense 5 uL of 1x MTase-Glo Detection Solution (R) to allow for ADP to be converted to ATP which was then detected with a luciferase reaction.
9; Centrifuge; 15 sec; Centrifuge the assay plate for 15 seconds at 1000 RPM.
10; Incubation; 30 min; Assay plates were incubation at room temperature in the dark.
11; Detection; Luminescence; Plates were read on ViewLux detector (PerkinElmer). Data were normalized to no-enzyme (0% activity) and no-inhibitor (DMSO; 100%) controls, and the resulting percent inhibition data were fitted to a 4-parameter Hill equation using GraphPad Prism.
Also: nearly all actives have a fitted effect of over 65% in size.
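For activity change, negative = inhibition in this document: plate controls were DMSO vehicle for no effect and no enzyme for full effect.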
Potency is read from the fitted curve at half-maximal effect.

Chains of the proteins cited; added tags and fusions are not shown.
UniProt Q9BV86, whole entry: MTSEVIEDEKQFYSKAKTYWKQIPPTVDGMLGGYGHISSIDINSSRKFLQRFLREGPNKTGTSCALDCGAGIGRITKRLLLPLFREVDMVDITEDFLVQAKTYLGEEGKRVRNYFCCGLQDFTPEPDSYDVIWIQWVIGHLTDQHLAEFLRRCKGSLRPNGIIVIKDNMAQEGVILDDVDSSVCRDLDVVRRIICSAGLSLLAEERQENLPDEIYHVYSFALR

Compound	Potency	activity change, negative = inhibition
CCOC(=O)C(=O)CBr	active: 79.4 µM	
COc1ccccc1C(=O)NCC1(N2CCOCC2)CCCCC1		inactive: 8.19%
O=C(NCC1(N2CCOCC2)CCCCC1)c1ccc(Cl)cc1		inactive: 6.73%
CCOC(=O)N1CCC(=O)CC1		inactive: 17.9% [at 57.5 µM]
O=C(NCC1(N2CCOCC2)CCCCC1)c1ccccc1Br		inactive: -0.307%
CCCCOc1ccccc1C(=O)NCC1(N2CCOCC2)CCCCC1		inactive: 5.2%
CCCOc1cccc(C(=O)NCC2(N3CCOCC3)CCCCC2)c1		inactive: 12.1%
CCOc1ccc(C(=O)NCC2(N3CCOCC3)CCCCC2)cc1		inactive: 6.68%
O=C(NCC1(N2CCOCC2)CCCCC1)c1ccccc1		inactive: 3.09%
O=C(NCC1(N2CCOCC2)CCCCC1)c1ccc([N+](=O)[O-])cc1		inactive: -1.86%
O=C(NCC1(N2CCOCC2)CCCCC1)c1ccccc1[N+](=O)[O-]		inactive: 17%
COc1cc(C(=O)NCC2(N3CCOCC3)CCCCC2)cc(OC)c1OC		inactive: 2.5%
CC(C)(C)c1ccc(C(=O)NCC2(N3CCOCC3)CCCCC2)cc1		inactive: 4.09%
Cc1ccccc1C(=O)NCC1(N(C)C)CCCCC1		inactive: 8.94%
CC(=O)N1CCc2ccc(N(C(=O)/C=C/c3cccc(C#N)c3)C3CCN(CCC4CCCC4)CC3)cc21		inactive: 4.5% [at 57.5 µM]
CN(C)C1(CNC(=O)c2ccc(C(C)(C)C)cc2)CCCCC1		inactive: 4.69%
